Antibody variant affinities, Ab-14 heavy chain, assay B

Reference: Li et al. 2023, doi:10.1038/s41467-023-39022-2. File: FLAb, binding data.

Target: peptide PDVDLGDISGINAS, taken from heptad repeat 2 (HR2) of SARS-CoV-2 spike.

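Phage display of a naive human antibody library on the peptide gave the parent. The variants were designed computationally from a first round of random CDR variants and then made and measured. Their group label is 14H_GPLM_Gen (GPLM: also part of the Gaussian process libraries; Gen: genetic algorithm; a sequence that several methods proposed may carry one label only). AlphaSeq pools MATa yeast showing the antibodies with MATalpha yeast showing the peptide. Pairs that bind mate more often; barcode pairs of the diploids are counted by sequencing. A regression on co-assayed BCL2-family reference pairs converts the normalised counts of each replicate to an apparent Kd. The assay was run in six technical replicates.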

Each scFv is VH, a (GGGGS)3 linker, VL, as in the parent Ab-14, and differs from it in the CDRs of the heavy chain only.
VH: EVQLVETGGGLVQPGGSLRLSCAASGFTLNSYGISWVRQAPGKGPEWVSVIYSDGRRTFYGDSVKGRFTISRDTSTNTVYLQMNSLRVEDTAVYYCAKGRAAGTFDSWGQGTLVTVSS
VL: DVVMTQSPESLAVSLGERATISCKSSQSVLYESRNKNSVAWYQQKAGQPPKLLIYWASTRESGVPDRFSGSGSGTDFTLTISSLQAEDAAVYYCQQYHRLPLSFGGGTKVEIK

Positions count from residue 1 of the parent VH; T28S puts S in place of T.
Scale: log10 of Kd in nM, estimated from mating counts; low values are strong binders.
A mean of the replicates is given; it leaves out those without a signal.
"ND" means that the variant was in the library but no mating with the target was seen in that replicate; the authors take this as a sign of poor binding, and no number exists.
Of ten entries with the parent sequence, four were seen in most replicates (averages 0.34 to 2.37), three in one and three in none, so single entries are noisy.
In the paper, a design with two or fewer of six values counts as a poor binder.
Three control strains display no target. For all heavy chain designs, 1% of the pairings with them gave a signal, with a median of 2.08 and one signal in twenty below 0.84, so weak values seen in few replicates may be background. The control count says in how many pairings with the empty strains this scFv gave a signal, with their mean in brackets.
Values of this round are not directly comparable with the first-round values of the same sequences.

changes,"log10 Kd, replicates",mean log10 Kd (nM),signal with controls
T28S/G61T/A101E,0.66 0.20 0.61 -0.23 0.42 -0.02,0.28,0 of 18
T28E/S53A/R100Y,0.64 0.46 0.06 0.02 -0.08 0.31,0.23,1 of 18 (1.01)
T28D/G61A/R100Q/S107D,ND 1.52 ND ND 1.22 1.42,1.39,0 of 18
T28E/A101T/S107N,1.42 1.50 0.93 0.85 1.21 1.63,1.26,0 of 18
T28P/S31E/A101T,0.51 1.19 0.65 -0.50 0.48 -0.07,0.38,0 of 18
T28D/R100M/A101T,0.00 -0.18 -0.31 -0.28 -0.55 0.10,-0.20,0 of 18
G61A/A101M/S107T,0.96 0.55 0.70 0.47 0.69 0.85,0.70,2 of 18 (3.20)
G26E/S53A/R100E,0.46 0.05 -0.28 0.17 -0.06 0.07,0.07,1 of 18 (1.98)
T28S/T58A/R100Q,0.62 0.17 0.19 0.10 0.37 -0.02,0.24,0 of 18
N30E/S53A/S107K,-0.52 -0.37 -0.92 ND -0.10 0.11,-0.36,1 of 18 (0.01)
T28S/S31D/R100K,0.32 -0.63 -0.50 -0.86 -0.88 -0.42,-0.50,0 of 18
T28S/G61K/R100D,ND ND 0.38 0.04 0.09 -0.24,0.07,0 of 18
T28D/R100Q,1.20 0.46 0.89 0.22 1.55 0.62,0.82,0 of 18
T28P/S31D/G61A/A101T,0.23 -0.28 0.11 0.15 0.66 0.67,0.26,0 of 18
T28S/R56K,1.14 0.65 0.51 0.71 0.34 0.71,0.68,1 of 18 (2.14)
G61H/A101E/S107T,0.72 1.15 0.80 1.91 3.33 1.34,1.54,1 of 18 (1.35)
T28S/G61A/R100D,0.87 0.80 0.89 0.80 0.71 0.62,0.78,1 of 18 (2.04)
T28N/G61A/S63Q/R100Q,1.23 0.94 0.98 0.94 0.69 0.81,0.93,0 of 18
S31E/S63D/A101T,0.03 0.63 0.36 0.20 0.26 0.01,0.25,0 of 18
T28V/S31N/A101T,0.03 ND -0.15 ND -0.26 0.89,0.13,0 of 18
T28S/G61D/R100S,0.00 -0.14 -0.12 -0.09 0.16 -0.16,-0.06,0 of 18
T28S/A101T/T104M,ND ND ND ND ND ND,ND,0 of 18
T28Y/R100K/A101T,ND ND ND ND 1.90 1.40,1.65,0 of 18
N30D/A101N,0.29 0.97 0.33 0.47 0.57 0.54,0.53,0 of 18
T28D/G61Q/A101E,-0.33 0.09 -0.09 -0.26 -0.34 -0.06,-0.17,0 of 18
N30E/G61A/S107V,1.17 0.53 ND 0.65 ND 1.09,0.86,0 of 18
T28S/S31D/A101W,0.29 0.47 0.44 0.57 0.27 0.26,0.38,0 of 18
T28S/S31N/G61H/A101T,0.18 0.70 0.49 0.46 0.89 0.40,0.52,0 of 18
T28S/S63G/A101T,1.11 0.78 1.04 0.93 1.24 0.79,0.98,0 of 18
T28N/G61K/A101T,0.59 0.51 0.37 0.84 0.52 0.69,0.59,0 of 18
G61H/R100E/S107T,0.55 1.09 1.45 0.32 1.33 2.19,1.16,0 of 18
T28H/G61A/R100A,ND ND ND ND ND ND,ND,0 of 18
N30E/S53A/S63A,-0.07 -0.09 -0.06 -0.21 0.12 -0.05,-0.06,0 of 18
T28Q/N30E/G61A,1.04 1.25 0.75 0.95 0.28 0.89,0.86,0 of 18
T28S/S31N/R100Q,1.00 0.37 0.10 0.53 0.38 0.57,0.49,2 of 18 (1.35)
L29I/G61S/R100K,1.36 1.03 0.68 0.97 1.12 1.99,1.19,1 of 18 (2.28)
N30D/G61A/A101L,0.86 0.03 -0.09 -0.23 -0.20 0.35,0.12,0 of 18
G61S/R100M/A101E,0.08 0.14 -0.08 0.15 0.37 0.22,0.15,0 of 18
T28W/G61I/R100Q,ND ND ND ND ND ND,ND,0 of 18
T28S/A101E/S107D,1.27 0.23 0.01 0.90 0.68 1.28,0.73,0 of 18
T28S/G61A/A101S,-0.28 -0.80 1.36 -0.51 -0.19 0.10,-0.05,0 of 18
N30E/R56Q/G61A,0.92 0.47 0.55 0.73 0.31 0.88,0.64,1 of 18 (1.67)
S31E/R56K,0.26 0.62 -0.14 -0.22 -0.07 0.62,0.18,0 of 18